This note sets out measurements from US20130130985A1.

Chains of the proteins cited; added tags and fusions are not shown. Lines headed by an entry give the natural chain unless they say otherwise; changes in a name come on top.
UniProt P30559: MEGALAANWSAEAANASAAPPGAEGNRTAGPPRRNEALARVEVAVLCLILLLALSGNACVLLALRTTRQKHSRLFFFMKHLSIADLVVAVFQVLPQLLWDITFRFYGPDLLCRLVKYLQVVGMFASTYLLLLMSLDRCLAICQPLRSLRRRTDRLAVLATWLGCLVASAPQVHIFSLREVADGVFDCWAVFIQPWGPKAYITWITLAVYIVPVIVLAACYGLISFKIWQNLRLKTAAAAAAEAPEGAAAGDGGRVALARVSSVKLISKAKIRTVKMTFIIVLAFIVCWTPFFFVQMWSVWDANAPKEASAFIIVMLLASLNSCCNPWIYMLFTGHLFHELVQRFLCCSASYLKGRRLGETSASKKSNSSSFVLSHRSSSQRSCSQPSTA
UniProt P37288, whole entry: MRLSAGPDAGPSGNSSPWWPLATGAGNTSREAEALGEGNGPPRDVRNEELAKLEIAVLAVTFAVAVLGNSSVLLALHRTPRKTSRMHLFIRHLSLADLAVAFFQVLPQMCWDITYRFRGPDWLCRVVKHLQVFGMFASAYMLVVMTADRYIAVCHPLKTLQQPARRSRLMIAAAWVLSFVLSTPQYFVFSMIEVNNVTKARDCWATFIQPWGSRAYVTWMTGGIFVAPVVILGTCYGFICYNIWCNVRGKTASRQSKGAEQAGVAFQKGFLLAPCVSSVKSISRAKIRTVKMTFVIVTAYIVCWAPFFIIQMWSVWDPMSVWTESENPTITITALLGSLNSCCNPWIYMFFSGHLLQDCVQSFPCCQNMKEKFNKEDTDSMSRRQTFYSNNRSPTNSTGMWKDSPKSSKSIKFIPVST

Assay [1] addresses human oxytocin receptor (human) (UniProt P30559). As to the kind of experiment: radioligand displacement (3H-OT), SPA beads, COS-1 membranes.
The target is the same in assay [2]. As to the kind of experiment: cell-based or functional assay.
Assay [3] deals with human vasopressin V1a receptor (human) (UniProt P37288). As to the kind of experiment: cell-based or functional assay.
For assay [4] the target is unchanged. Briefly: radioligand displacement (125I-V1a linear antagonist), SPA beads, COS-1 membranes.

As for [CH2-S]-OT (peptide), the IC50 stood at 0.0031 µM in assay [1] and 0.0098 µM in assay [4]. In addition, the EC50, IP-One HTRF assay in assay [2] was 0.032 µM; in assay [3], 0.263 µM.
